## Measured affinities in a library of Ab-14 light chain variants

Source: Li et al. 2023 (doi:10.1038/s41467-023-39022-2), MIT Lincoln Laboratory and A-Alpha Bio; data file from the FLAb repository.

The target is the same throughout: PDVDLGDISGINAS, from the HR2 region of SARS-CoV-2 spike.

Parent scFv Ab-14: VH joined to VL by three GGGGS repeats. Changes lie in the light chain CDRs alone.
VH: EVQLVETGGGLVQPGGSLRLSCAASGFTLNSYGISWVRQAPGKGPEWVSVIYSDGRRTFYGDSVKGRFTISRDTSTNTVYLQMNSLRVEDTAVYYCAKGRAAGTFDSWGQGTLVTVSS
VL: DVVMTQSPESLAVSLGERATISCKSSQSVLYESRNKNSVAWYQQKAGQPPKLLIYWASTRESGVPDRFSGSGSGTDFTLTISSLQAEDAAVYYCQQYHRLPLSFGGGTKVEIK

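The starting antibody came from a phage panning campaign against this peptide. Designed CDR sequences, proposed from the first random library and measured here. Several design methods are mixed in this list. In AlphaSeq, yeast of one mating type display the scFv and yeast of the other type display the target. Pairs that bind mate more often; barcode pairs of the diploids are counted by sequencing. A regression on co-assayed BCL2-family reference pairs converts the normalised counts of each replicate to an apparent Kd. Mating was done six times.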

Each variant is given by its three light chain CDRs, as the data file delimits them; those of the parent are KSSQSVLYESRNKNSVA, WASTRES, QQYHRLPLS.
This list holds designs with at most six substitutions.
Affinities are written as log10 Kd with Kd in nM; a lower number is a better binder.
A mean of the replicates is given; it leaves out those without a signal.
Where no diploid with the target was found in that replicate, the entry reads "nd": below detection, most likely a poor binder, though not proof of it.

- KFQQSWLYESRNKNSVA | NASQRES | QQYHRLPLS -> 0.44, -0.05, -0.01, -0.13, -0.25, 0.29 (mean 0.05; controls 2 of 18)
- KLPQSVLYESRNKNSVA | NASQREE | QQYHRLPLS -> -0.61, -0.21, -0.48, -0.68, -0.71, -0.47 (mean -0.53; controls 0 of 18)
- KLSMSDLYEMRNKNSVA | EASTREV | QQYHRLPLS -> 0.20, 0.05, -0.03, 0.01, -0.13, -0.03 (mean 0.01; controls 0 of 18)
- KLSQSVLYESRNKNSVA | NASERES | QQYHRLPLS -> 0.04, -0.07, -0.07, -0.11, -0.27, -0.08 (mean -0.09; controls 2 of 18)
- KVEQGVLYESRNKNSVA | GASTRES | QQYHRLPLS -> -0.17, 0.24, -0.15, -0.28, -0.23, -0.16 (mean -0.13; controls 1 of 18)
- KISQSVLMESLNKNSVA | HASTRIW | QQYHRLPLS -> 0.93, 0.93, 0.48, 0.86, 0.72, 0.51 (mean 0.74; controls 2 of 18)
- KSSGMDLYESRNGNSVA | DASTRSS | QQYHRLPLS -> 0.06, 0.02, -0.15, -0.04, 0.09, 0.18 (mean 0.03; controls 5 of 18)
- TFYQSVLYESRNKNSVA | WASTRSN | QQYHRLFLS -> nd, nd, nd, nd, nd, nd (controls 0 of 18)
- KSSQSVLYESRNKNSVA | EASTRES | QQYDRLPLS -> 1.45, 1.31, 0.74, 1.02, 0.78, 1.12 (mean 1.07; controls 1 of 18)
- KLEMSTLYESRNKNSVA | NASTRES | QQYHRLPLS -> -0.08, -0.26, -0.26, -0.44, -0.13, -0.30 (mean -0.25; controls 0 of 18)
- KVYPSQLYESRNKNSVA | QASTRES | QQYHRLPLS -> 0.27, -0.18, -0.04, -0.13, -0.21, -0.13 (mean -0.07; controls 1 of 18)
- KDSQSVLYDSRNKNSVA | WASTRES | QQYSRLPLS -> 0.69, 0.99, 0.72, 1.13, 1.18, 1.19 (mean 0.98; controls 0 of 18)
- KSSQSFLQESRNDNSVA | GASTRES | QQYHRLPLS -> 0.61, 1.05, -0.07, 0.30, 0.67, 0.57 (mean 0.52; controls 0 of 18)
- KSSQSVLYESRNKNSVA | SASTRES | QQYMRLPLS -> 0.68, 0.34, 0.62, 0.42, 0.41, 0.47 (mean 0.49; controls 0 of 18)
- KMSQSVLYESRNKNNVA | NASTRES | QQYHRLPLS -> -0.15, -0.16, -0.35, -0.49, -0.48, -0.28 (mean -0.32; controls 2 of 18)
- KLSQSHLYESRNKNNVA | DASTRES | QQYHRLPLS -> -0.61, -0.70, -0.68, -0.84, -0.74, -0.65 (mean -0.70; controls 0 of 18)
- KFSQSVLYESRQKNSVA | NASTRES | QQYHQLPLS -> 0.17, 0.33, 0.08, 0.28, 0.01, 0.35 (mean 0.20; controls 0 of 18)
- KLSQSVLYEERNKNSVA | QASTRES | QQYHRLPLS -> 0.27, 0.31, -0.19, 0.02, 0.24, 0.42 (mean 0.18; controls 0 of 18)
- KFSSSVLYEDRNKNSVA | WASTRES | QQYHELPLS -> nd, 0.98, 0.69, 1.06, 1.38, 0.32 (mean 0.89; controls 0 of 18)
- KVSQSALYESRNKNSVA | NASQRES | QQYHRLPLS -> 0.32, 0.36, 0.12, 0.05, 0.17, 0.30 (mean 0.22; controls 2 of 18)
- KSGQGVLYESRNKNSVA | RASTRES | QQYHRLPPS -> 2.40, 2.76, 1.17, 1.29, 1.95, 1.62 (mean 1.86; controls 0 of 18)
- KQSQSVLYESRNVNSVA | DASTRSS | QQYHRLPLS -> 0.17, -0.07, 0.01, 0.06, -0.44, 0.12 (mean -0.03; controls 1 of 18)
- KISQSDLYESRNKNSVA | GASTRES | QQYHRLPLS -> -0.44, -0.55, -0.38, -0.51, -0.52, -0.29 (mean -0.45; controls 0 of 18)
- KLPQSVLYESRNKNSVA | EASTREQ | QQYHRLPLS -> -0.23, -0.12, -0.08, -0.18, -0.09, -0.09 (mean -0.13; controls 0 of 18)
- KLSQSFLYESRNKNSVA | EASTRES | QDYHRLPLS -> 0.82, 0.37, 0.51, 0.02, 0.59, 0.90 (mean 0.53; controls 0 of 18)
- KLSMSYLYESRNKNSVA | EASTRES | QQYHRLPLS -> 0.32, 0.36, 0.21, 0.34, 0.23, 0.46 (mean 0.32; controls 1 of 18)
- KLSQSDLYESRNKNAVA | NASQRES | QQYHRLPLS -> -0.16, -0.20, -0.37, -0.38, -0.50, -0.25 (mean -0.31; controls 2 of 18)
- KWSMSVMGESVNKNSVA | NASTRES | QQYHRLPLS -> -0.04, -0.01, -0.20, -0.35, -0.27, -0.03 (mean -0.15; controls 3 of 18)
- KSSQSVLRESRNKNSVA | EASTRES | QQYHHLPLS -> 1.93, 2.00, 2.36, 1.00, 1.91, 2.57 (mean 1.96; controls 2 of 18)
- KLSWSVLLESRAKNSVA | NASLRES | QQYHRLPLS -> 0.74, 0.48, 0.65, 0.17, 0.58, 0.91 (mean 0.59; controls 0 of 18)
- KSAQSWLYESFNLNSVA | WASTRES | QQYHGLPLS -> nd, nd, nd, nd, nd, nd (controls 0 of 18)
- KSSISVLYEENNHNSVA | AAQTRES | QQYHRLPLS -> 0.22, 0.35, 0.63, 0.43, -0.15, 0.78 (mean 0.38; controls 0 of 18)
- KSSISVLYESQNKNSVA | EASQRES | QQYHRLPLS -> 0.26, -0.07, 0.20, 0.31, -0.01, 0.56 (mean 0.21; controls 2 of 18)
- KVSPSWLYESRNKNSVA | NASQRES | QQYHRLPLS -> -0.08, -0.25, -0.26, -0.42, -0.23, -0.13 (mean -0.23; controls 2 of 18)
- KLSQSVDYESRNKNNVA | AASTRES | QQYHRLPLS -> 0.11, 0.15, 0.12, 0.78, 0.12, 0.00 (mean 0.21; controls 1 of 18)
- KSSESVLYESGNKNSVA | HASTRED | QQYHRLPLS -> 0.46, 0.19, 0.24, 0.23, 0.28, 0.19 (mean 0.26; controls 0 of 18)

The first 5 entries again:

- KFQQSWLYESRNKNSVA | NASQRES | QQYHRLPLS = 0.44, -0.05, -0.01, -0.13, -0.25, 0.29 (mean 0.05; controls 2 of 18)
- KLPQSVLYESRNKNSVA | NASQREE | QQYHRLPLS = -0.61, -0.21, -0.48, -0.68, -0.71, -0.47 (mean -0.53; controls 0 of 18)
- KLSMSDLYEMRNKNSVA | EASTREV | QQYHRLPLS = 0.20, 0.05, -0.03, 0.01, -0.13, -0.03 (mean 0.01; controls 0 of 18)
- KLSQSVLYESRNKNSVA | NASERES | QQYHRLPLS = 0.04, -0.07, -0.07, -0.11, -0.27, -0.08 (mean -0.09; controls 2 of 18)
- KVEQGVLYESRNKNSVA | GASTRES | QQYHRLPLS = -0.17, 0.24, -0.15, -0.28, -0.23, -0.16 (mean -0.13; controls 1 of 18)

As a blank, each scFv also met three strains without target: over all light chain designs, 4% of these pairings were detected, typically at 2.64 and seldom below 1.59. The control count says in how many pairings with the empty strains this scFv gave a signal.
Of ten entries with the parent sequence, four were seen in most replicates (averages 0.34 to 2.37), three in one and three in none, so single entries are noisy.
In the paper, a design with two or fewer of six values counts as a poor binder.
A sequence measured in both rounds can read differently, since the two assays cover different ranges.